Legend:
[1] = Water solubility in sensory oil (solvency of the oil for water); format: physicochemical; conditions: yes/no
Excerpt: (§1) A sensory oil can be used in the antibacterial composition to assist in leaving the user with a non-tacky feeling to the skin after application of the composition. The antibacterial composition comprises a sensory oil in an amount of 0.01 to 10% by weight, preferably 0.5 to 5% by weight including all values and ranges subsumed therein. The sensory oil can comprise a soluble sensory oil. Sensory oils desirable for use in the antibacterial composition disclosed herein must meet the following criteria: the sensory oil must be liquid, the sensory oil must be soluble in at least a 75/25 or higher ratio of EtOH/Water which is to be reflective of solubility in the final composition to give a clear final antibacterial composition, and the sensory oil must have no solvency for water.
(§2) The examples are not meant to limit the materials that can be used but merely to illustrate oil type and level selected based on three criteria. […] Finally, the preferred oil must itself not have solvency for water such that during application and on drying as the ethanol and water evaporate, the water is also allowed to quickly evaporate leaving behind only the oil and any skin benefit actives/moisturizers if present.

[2] = Solubility of sensory oil in 75/25 EtOH/Water blend; format: physicochemical
Excerpt: as §1, §2

Row | Water solubility in sensory oil [1] | Solubility in 75/25 EtOH/Water [2] [%] | Substance
1 | Yes | >30 | Glycereth-5 lactate
2 | Yes | >30 | Glycereth-7 lactate
3 | No | >30 | PPG15 Stearyl ether
